Only a part is listed here, and it is no random draw. Activity calls are given as the source filed them.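 The calls were made as follows: active = Every replicate reaches about 75%, or at least half do and their mean reaches it too (limit read from the data); inconclusive = At least half of replicates reach the limit but their mean does not; inactive = Under half of replicates reach the limit.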

The nature of the test: INS-1E beta cell survival under cytokines – luminescence, primary screen (AID 435005).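 Also: 0% = cytokine-treated negative control wells and 100% = positive control rescue; higher means more ATP so stronger rescue from cytokine killing.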 The note with it: INS-1E cytokine-induced death, ATP luminescence, 48 h; active compounds read high; percent of positive-control rescue, neutral wells zero; concentration not given here.
For the molecule `CC[n+]1c(/C=C/N(C)c2ccccc2)oc2ccccc21`, the protection from apoptosis was active: 102%.

The values are drawn from PubChem BioAssay AID435005 (Broad Institute, 2010).
